The record followed here is ChEMBL document CHEMBL1132713, “Emerging molecular approaches to pain therapy” (J Med Chem, 1999).

Sequences of proteins named here, by UniProt entry; tags and fusion partners are left off. A change or cut given only in a name is not applied to a line headed by its entry.
UniProt Q00961: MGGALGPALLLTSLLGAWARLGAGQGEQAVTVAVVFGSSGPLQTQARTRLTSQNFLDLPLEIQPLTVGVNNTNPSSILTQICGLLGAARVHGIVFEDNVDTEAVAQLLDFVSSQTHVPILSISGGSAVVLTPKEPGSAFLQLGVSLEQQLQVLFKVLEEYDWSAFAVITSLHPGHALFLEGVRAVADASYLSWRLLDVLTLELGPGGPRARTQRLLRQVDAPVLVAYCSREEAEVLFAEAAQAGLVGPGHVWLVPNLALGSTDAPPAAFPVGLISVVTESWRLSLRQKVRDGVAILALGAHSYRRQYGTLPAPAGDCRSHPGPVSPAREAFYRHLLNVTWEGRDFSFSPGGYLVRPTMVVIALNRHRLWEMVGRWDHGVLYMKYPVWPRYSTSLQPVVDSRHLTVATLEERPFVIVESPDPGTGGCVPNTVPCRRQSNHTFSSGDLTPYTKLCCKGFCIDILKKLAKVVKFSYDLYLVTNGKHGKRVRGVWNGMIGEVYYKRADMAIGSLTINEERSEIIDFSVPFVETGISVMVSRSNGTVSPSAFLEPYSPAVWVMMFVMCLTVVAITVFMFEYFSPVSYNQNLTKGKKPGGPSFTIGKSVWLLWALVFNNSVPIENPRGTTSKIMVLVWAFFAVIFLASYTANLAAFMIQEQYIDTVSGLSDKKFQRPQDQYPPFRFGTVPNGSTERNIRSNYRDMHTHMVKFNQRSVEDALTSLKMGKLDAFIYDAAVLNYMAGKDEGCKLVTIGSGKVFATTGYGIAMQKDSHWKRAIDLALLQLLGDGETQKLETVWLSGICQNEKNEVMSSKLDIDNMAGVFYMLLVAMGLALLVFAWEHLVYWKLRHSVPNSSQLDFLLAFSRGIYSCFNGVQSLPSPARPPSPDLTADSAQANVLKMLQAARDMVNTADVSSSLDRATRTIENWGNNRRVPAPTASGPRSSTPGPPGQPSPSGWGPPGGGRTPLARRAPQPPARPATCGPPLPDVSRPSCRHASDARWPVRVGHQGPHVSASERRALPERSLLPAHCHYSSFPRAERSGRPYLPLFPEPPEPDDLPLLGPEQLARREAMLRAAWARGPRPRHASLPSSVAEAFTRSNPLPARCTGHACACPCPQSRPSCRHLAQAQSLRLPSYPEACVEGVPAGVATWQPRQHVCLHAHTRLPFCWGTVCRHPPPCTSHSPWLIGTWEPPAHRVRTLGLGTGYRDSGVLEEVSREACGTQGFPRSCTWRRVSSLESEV

The target in the test is Glutamate receptor ionotropic, NMDA 2C (Rattus norvegicus, UniProt Q00961). In words: Compound with the N-methyl-D-aspartate glutamate receptor blocking activity.

Broadly, the Ki is the dissociation constant of the complex between target and ligand, obtained from inhibition or displacement. `CC12CC3CC(C)(C1)CC(N)(C3)C2` [MEMANTINE] registered a Ki of 700 nM.
